In patent US8071581B2 one finds IC50 and EC50 data, which are given here for one compound.

By UniProt entry, the sequences of proteins in these tests, tags left out. Residues count along the entry.
UniProt P08581, 1078-1345 limits assumed: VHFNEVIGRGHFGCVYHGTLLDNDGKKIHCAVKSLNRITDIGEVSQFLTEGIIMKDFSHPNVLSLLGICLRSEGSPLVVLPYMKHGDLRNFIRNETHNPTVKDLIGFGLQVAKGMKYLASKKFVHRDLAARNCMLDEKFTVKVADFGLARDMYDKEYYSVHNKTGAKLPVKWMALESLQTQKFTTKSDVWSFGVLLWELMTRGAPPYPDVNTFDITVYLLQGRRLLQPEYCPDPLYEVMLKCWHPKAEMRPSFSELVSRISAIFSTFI

SMILES strings stand for the structures.

In assay [1] the target is MET kinase (c-MET), kinase domain of human Met (Homo sapiens, UniProt P08581). The experiment in a line: MET luminescence-based enzyme assay (Kinase-Glo). Particulars: read-out: c-MET IC50; Table 1. (Kinase-Glo reads ATP consumption through a luciferase reaction.)
The subject of assay [2] is GTL16. The assay is described as follows: GTL16 cell assay (EC50). The assay is classed as cell-based. The conditions noted are these: read-out: GTL16 EC50; Table 1.

As a reminder, the IC50 is the midpoint of a concentration-inhibition curve. As a reminder, the EC50 is the concentration at which the effect is half-maximal. Regarding `CCNC(=O)c1ccc(-c2ccc3nnc(Cc4cc5cccnc5cc4C)n3n2)cc1F`, the IC50 in assay [1] is below 100 nM. Further, the EC50 in assay [2] is below 100 nM.
